This note sets out measurements from PubChem BioAssay AID504706 (National Center for Advancing Translational Sciences (NCATS), 2011).

The entries are a selection whose mix differs from that of the whole data set. Some tests of the compounds listed are not included; inactive here does not mean inactive elsewhere. Inconclusive results are not listed. Calls of active or inactive are those of the source. Calls come from the whole dose curve; as a rule, active = well fitted activation curve with a large enough effect; inconclusive = small, poorly fitted or top-dose-only effect; inactive = no such curve, though single readings can be large or run the other way.

This test can be described thus: qHTS assay for re-activators of p53 using a Luc reporter. Note: % of control where 0% means no effect; nearly all actives have a fitted effect of over 45% in size. The conditions noted are these: H1299 p53-A138V BP100-luciferase reporter, luminescence, 24 h; at 92.2 µM (top of the series). The source says:
The p53 tumor suppressor plays a key role in suppression of tumorigenesis and in human carcinogenesis. It is frequently found inactivated in human cancers, mainly by point mutation. These point mutations are found in a wide variety of human cancers and a majority of them affect the DNA binding domain of the protein. The point mutations either alter native p53 conformation or abolish DNA contact. Additionally, cancer cells with p53 mutations are more resistant to chemo-radiation therapies. In order to find activators to reactivate this important protein, a cell-based screen for p53-dependent luciferase-reporter expression was developed. A p53-null H1299 lung cancer cell line was stably co-transfected with a temperature sensitive p53 mutant, p53-A138V, and a p53-responsive BP100-luciferase reporter. This cell model has previously been characterized in a gene chip profiling experiment for p53 activation. By lowering the culture temperature from 37 deg C (mutant p53 conformation) to 32 deg C (w.t. p53 conformation), a 30-60 fold increase in activation of luciferase activity is observed. At assay temperate, 37 deg C, basal reporter expression is very low and after the addition of detection reagent, a luminescent read-out is carried out. NIH Chemical Genomics Center [NCGC] NIH Molecular Libraries Probe Production Centers Network [MLPCN] MLPCN Grant: DA031088-01A1 Assay Provider (PI): Yi Sung, University of Michigan at Ann Arbor
5ul of 1000 cells per well are dispensed in all wells except column 4, into white solid-bottom TC-treated Kalypsys plates. The cells are kept in Opti-MEM and supplemented with 10% FBS and dispensed using a Multidrop (Thermo). Then using the Kalypsys pin-tool, 23nl of compounds are pinned. The compounds are starting concentration at 10mM, with 1:5 dilution, 4 points, and the control compound nocodazole is pinned in column 1 at 25mM, 1:3 dilution, in duplicate, 25mM nocodazole is pinned in column 2. Please note, all concentrations are working concentrations. 5ul of 1pM purified luciferase enzyme is dispensed using the Kalypsys dispenser in column 4. Plates are incubated for 24 hrs at 37 deg C, 5% CO2, and 95% humidity. Then 4ul of the detection reagent Amplite (ABD Bioquest) is added using the Kalypsys dispenser. Plates are incubated for 10 min at ambient room temperature and are then read on the ViewLux (Perkin Elmer) using a clear filter for a luminescent read-out.
Consider `COc1ccc(Br)c(C(=O)NCC2(N3CCCCC3)CCCCC2)c1`, for which the activity change, positive = activation is inactive: -3.33%. The value for `CN(C)c1cccc(C(=O)NCC2(N(C)C)CCCCC2)c1` was inactive: -12.1%; that for `CC(C)Oc1ccc(C(=O)NCC2(N(C)C)CCCCC2)cc1` was inactive: 2.05%; that for `CN(C)C1(CNC(=O)c2ccc(Br)cc2)CCCCC1` was inactive: -4.12%. The value for `COc1cc(C(=O)NCC2(N(C)C)CCCCC2)c([N+](=O)[O-])cc1OC` was inactive: 1.76%. Under `COc1ccc(Cl)cc1C(=O)NCC1(N(C)C)CCCCC1` stands inactive: 1.7%; under `COc1cccc(C(=O)NCC2(N3CCCCC3)CCCCC2)c1`, inactive: -1.79%. With `O=C(NCC1(N2CCCCC2)CCCCC1)c1cccc(Cl)c1`, the activity change, positive = activation was inactive: -4.33%. The value for `CN(C)C1CCCC1OC(=O)C(O)(c1ccccc1)c1ccccc1` (stereo not drawn) was inactive: -7.29%. The value for `CN(C)c1ccc(C(=O)NCC2(N(C)C)CCCCC2)cc1` was inactive: 0.126%; that for `Cc1ccccc1C(=O)NCC1(N2CCCCC2)CCCCC1` was inactive: -1.72%; that for `O=C(NCC1(N2CCCCC2)CCCCC1)c1cc(F)c(F)cc1Cl` was inactive: 2.48%. The value for `C=CCN1CCN(CCOC(=O)C(O)(c2ccccc2)c2ccccc2)CC1` was inactive: -3.04%; that for `O=C(NCC1(N2CCCCC2)CCCCC1)c1cccc(Br)c1` was inactive: -2.75%; that for `Cc1cc(C(=O)NCC2(N3CCCCC3)CCCCC2)ccc1[N+](=O)[O-]` was inactive: -0.835%. As to `CCN1CCCC(OC(=O)C2(O)c3ccccc3C=Cc3ccccc32)C1` (stereo not drawn), the activity change, positive = activation was inactive: 4.77%.

Turning to `COc1ccc(C(=O)NCC2(N(C)C)CCCCC2)cc1`, the activity change, positive = activation was inactive: 1.66%. Consider `O=C(NCC1(N2CCCCC2)CCCCC1)c1cc([N+](=O)[O-])ccc1Cl`, for which the activity change, positive = activation was inactive: 8.62%. `CN1[C@@H]2CC[C@H]1CC(OC(=O)C(O)(c1ccccc1)c1ccccc1)C2` (stereo partly drawn): the activity change, positive = activation was inactive: -3.04%. Under `CC(C)N1C(=O)CC2(CCN(CCOC(=O)C(O)(c3ccccc3)c3ccccc3)CC2)C1=O` stands inactive: -4.38%. With `COc1cc(SC)ccc1C(=O)NCC1(N(C)C)CCCCC1`, the activity change, positive = activation is inactive: -3.91%.

As to `CCN(CC)CC(C)C(C)OC(=O)C(O)(c1ccccc1)c1ccccc1` (stereo not drawn), the activity change, positive = activation was inactive: -4.67%. As to `Cc1ccc(C(=O)NCC2(N3CCCCC3)CCCCC2)cc1`, the activity change, positive = activation is inactive: -0.736%.
